Source: ChEMBL document CHEMBL1134162 (Bioorg Med Chem Lett, 2001)

Amino acid sequences for entries named in this document (tags omitted).
UniProt P33535, whole entry: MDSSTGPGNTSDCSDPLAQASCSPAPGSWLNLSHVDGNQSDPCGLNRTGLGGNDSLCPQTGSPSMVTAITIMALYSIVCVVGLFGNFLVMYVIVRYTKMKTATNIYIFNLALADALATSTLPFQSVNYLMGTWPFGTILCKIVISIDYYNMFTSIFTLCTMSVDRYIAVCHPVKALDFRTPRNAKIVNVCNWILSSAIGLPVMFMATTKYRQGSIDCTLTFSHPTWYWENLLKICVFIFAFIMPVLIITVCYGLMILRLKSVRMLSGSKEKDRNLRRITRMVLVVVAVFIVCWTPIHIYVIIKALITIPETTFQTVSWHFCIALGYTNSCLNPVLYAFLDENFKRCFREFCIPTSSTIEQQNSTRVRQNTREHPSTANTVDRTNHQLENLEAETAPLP

Target: Mu-type opioid receptor (Rattus norvegicus, UniProt P33535)
Assay: Binding affinity was determined towards Opioid receptor mu 1 in rat brain synaptosomes using [3H]DAMGO as radioligand.

## Cc1cccc(C)c1C[C@H](NC(=O)CNC(=O)CNC(=O)[C@@H](N)Cc1ccc(O)cc1)C(=O)N[C@@H](CC(C)C)C(=O)O
  Ki: 2.51 µM
